Biological target: Phosphatidylinositol 4,5-bisphosphate 3-kinase catalytic subunit alpha isoform (Homo sapiens, UniProt P42336)
Assay: Inhibition of PI3Kalpha

The chains behind the UniProt entries cited, without tags or fusion partners.
UniProt P42336, whole entry: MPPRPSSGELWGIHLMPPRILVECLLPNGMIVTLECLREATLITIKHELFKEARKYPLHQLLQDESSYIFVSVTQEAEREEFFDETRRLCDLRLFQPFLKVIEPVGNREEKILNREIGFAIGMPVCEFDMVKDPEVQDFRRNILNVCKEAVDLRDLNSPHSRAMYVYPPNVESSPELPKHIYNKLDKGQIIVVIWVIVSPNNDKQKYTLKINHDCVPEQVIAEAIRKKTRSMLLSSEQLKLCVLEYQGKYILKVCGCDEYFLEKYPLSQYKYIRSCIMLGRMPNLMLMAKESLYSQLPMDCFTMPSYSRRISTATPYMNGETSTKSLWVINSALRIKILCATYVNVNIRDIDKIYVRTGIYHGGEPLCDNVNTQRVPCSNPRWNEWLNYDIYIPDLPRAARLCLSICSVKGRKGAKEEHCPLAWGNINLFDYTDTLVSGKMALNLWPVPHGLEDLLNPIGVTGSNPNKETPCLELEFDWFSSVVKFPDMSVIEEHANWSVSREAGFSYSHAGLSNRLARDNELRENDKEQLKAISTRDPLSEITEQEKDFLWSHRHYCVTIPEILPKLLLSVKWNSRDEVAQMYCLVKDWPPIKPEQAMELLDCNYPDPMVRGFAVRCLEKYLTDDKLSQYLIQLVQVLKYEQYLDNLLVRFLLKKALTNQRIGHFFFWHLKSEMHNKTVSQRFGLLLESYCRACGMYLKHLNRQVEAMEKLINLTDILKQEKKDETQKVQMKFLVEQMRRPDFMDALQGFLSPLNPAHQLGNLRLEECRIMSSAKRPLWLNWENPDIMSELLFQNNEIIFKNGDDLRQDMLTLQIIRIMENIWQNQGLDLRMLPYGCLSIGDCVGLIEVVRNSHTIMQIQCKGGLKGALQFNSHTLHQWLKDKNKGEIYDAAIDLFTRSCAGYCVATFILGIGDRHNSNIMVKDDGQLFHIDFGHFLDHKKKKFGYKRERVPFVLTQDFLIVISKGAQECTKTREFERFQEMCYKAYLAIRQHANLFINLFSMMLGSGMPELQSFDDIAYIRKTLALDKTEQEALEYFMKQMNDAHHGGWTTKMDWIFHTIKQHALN

IC50: 75 nM
Structure (SMILES): COc1cccc(Nc2nc(N3CCS(=O)(=O)CC3)nc3c2cnn3C)c1

— ChEMBL document CHEMBL1255193, “Structure-based optimization of pyrazolo-pyrimidine and -pyridine inhibitors of PI3-kinase” (Bioorg Med Chem Lett, 2010)
